Test results reported in US20240325396A1, “METHODS FOR TREATING CANCER” (Allarity Therapeutics, Inc., priority 2023, published 2024).
Like-named read-outs stand apart in the source and are kept apart here.

Tested on: murine lymphocytic leukemia parent cell line P388/S
Test: Proliferation of P388/S parent line with or without verapamil
Settings: Mus musculus

Question: O=c1[nH]nc2c3c(cccc13)N=C(CN1Cc3ccccc3C1)N2 [stenoparib, 8-(isoindolin-2-ylmethyl)-2,9-dihydro-3H-pyridazino [3,4,5-de] quinazolin-3-one] was tested. Which IC50 (read-out: IC50, inhibition of proliferation, P388/S, with P-gp antagonist verapamil) did it give?
Answer: 2340 nM

Question: And the IC50 (read-out: IC50, inhibition of proliferation, P388/S, without verapamil)?
Answer: 2140 nM
